Results reported in patent publication US20040197294A1, “Cosmetic and/or pharmaceutical preparations” (priority 2001, published 2004).
Like-named read-outs stand apart in the source and are kept apart here.

Tests used:
[1] = system: pig's epidermis; test: Dermatological compatibility: transepidermal water loss (TEWL), gravimetric; settings: 1.5% by weight partial glyceride or glycerol ether in 17% by weight Plantapon PS 10, pH 5.5; skin treated 30 minutes at 40° C.; lower = better compatibility
[2] = system: pig's epidermis; settings: pH 5.5

| TEWL [%-rel] = [treated/untreated * 100] − 100% [1] | TEWL [%-rel] = [treated/untreated * 100] − 100% [2] | Substance |
| --- | --- | --- |
| 15.0 %-rel | – | Stearic acid monoglyceride (>90) [Example 6] |
| 6.5 %-rel | – | Glycerol monocaprylate (>90) [Example 4] |
| – | 21.5 %-rel | Stearic acid mono/diglyceride (65:35) [Example 5] |
